Only a part is listed here, and it is no random draw. Results with a measured potency or affinity are listed apart. Activity calls are given as the source filed them. The rule behind the calls is not given here.

Amino acid sequences for entries named in this document (tags omitted). A change or cut given only in a name is not applied to a line headed by its entry.
UniProt P05187: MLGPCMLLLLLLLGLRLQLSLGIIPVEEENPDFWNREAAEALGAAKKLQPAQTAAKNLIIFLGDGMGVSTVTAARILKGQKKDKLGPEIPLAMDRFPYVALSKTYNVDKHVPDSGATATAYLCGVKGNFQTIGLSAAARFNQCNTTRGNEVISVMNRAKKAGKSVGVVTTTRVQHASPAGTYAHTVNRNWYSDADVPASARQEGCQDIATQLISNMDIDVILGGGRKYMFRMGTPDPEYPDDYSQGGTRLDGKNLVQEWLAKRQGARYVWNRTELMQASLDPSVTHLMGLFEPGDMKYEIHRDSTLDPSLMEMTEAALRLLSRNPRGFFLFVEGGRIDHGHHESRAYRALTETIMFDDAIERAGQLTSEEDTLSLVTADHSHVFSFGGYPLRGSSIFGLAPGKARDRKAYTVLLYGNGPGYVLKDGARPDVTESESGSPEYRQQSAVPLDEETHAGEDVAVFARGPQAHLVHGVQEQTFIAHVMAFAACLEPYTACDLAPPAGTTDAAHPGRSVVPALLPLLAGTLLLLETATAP

The target in the assay is Alkaline phosphatase, placental type (Homo sapiens) (UniProt P05187). Briefly: inhibition of human placental alkaline phosphatase – biochemical, luminescence, HTS (AID 690). Conditions: purified PLAP, luminescent substrate; at 20 µM; hits give high values.
Consider `CCOP1(=S)c2c(C)nn(CCC#N)c2N=C(c2ccc(F)cc2)N1C` (centres undefined), for which the inhibition was inactive: -27%. Under `O=[N+]([O-])c1ccc2c(c1)nnn2O` stands inactive: 7.8%; under `CCOP1(=S)c2c(C)nn(CCC#N)c2N=C(c2ccccc2F)N1C` (centres undefined), inactive: -10.6%.

As for `O=P(Nc1nccs1)(c1ccccc1)c1nc2ccccc2s1` (centres undefined), the inhibition was inactive: -41.5%. With `Cc1cccc(OCC(=O)OC2CN3CCC2CC3)c1` (centres undefined), the inhibition is inactive: 9.1%. Consider `O=P1(Nc2ccccn2)COc2ccccc2OC1`, for which the inhibition is inactive: -14.9%. For `Clc1n[nH]nc1-c1nn[nH][15n]1`, the inhibition is inactive: 6.7%. In the case of `O=P1(Nc2ncccn2)COc2ccccc2OC1`, the inhibition was inactive: -27.6%.

In the case of `Cc1ccc(OCC(=O)OC2CN3CCC2CC3)cc1` (centres undefined), the inhibition was inactive: -1%. Under `O=P1(Nc2ccc(Br)cn2)COc2ccccc2OC1` stands inactive: -11.5%; under `Cc1nn(-c2ccccc2)c2c1P(=O)(N1CCOCC1)N(C)C(c1ccccc1)=N2` (centres undefined), inactive: -29.4%. With `COP1(=S)c2c(C)nn(CCC#N)c2N=C(c2ccc(F)cc2)N1C` (centres undefined) the figure was inactive: -36.1%; with `O=C(COc1ccccc1)OC1CN2CCC1CC2` (centres undefined), inactive: 2.8%. Under `O=C(OC1CN2CCC1CC2)C12CC3CC(CC(C3)C1)C2` (centres undefined) stands inactive: -41.9%; under `CCN(CC)C(=S)SC(NC=O)C(Cl)(Cl)Cl` (centres undefined), inactive: 13%; under `CCOP(=O)(Nc1ccccc1)OCC`, inactive: -12.6%.

On to `Oc1ccccc1CNc1ccccn1`, for which the inhibition is inactive: -3.7%. With `Cc1c2non([O-])c-2c(C)[n+](=O)[n+]1[O-]` the figure was inactive: 7.3%; with `CC(C)CC(=O)NC(Sc1ccc(Cl)cc1)C(Cl)(Cl)Cl` (centres undefined), inactive: 30.5%. Under `CC1CCN(C(=O)Oc2c(Cl)cc(Cl)c3cccnc23)CC1` stands inactive: -41.7%; under `CCc1nc2c(n1)c1c(non1O)c1c2no[n+]1[O-]`, inactive: 1.4%.

For `O=[N+]([O-])c1cccc2n[nH]nc12`, the inhibition was inactive: 6.4%. On to `O=C(OC1CN2CCC1CC2)c1cccc(Cl)c1` (centres undefined), for which the inhibition was inactive: -6.1%. Under `O=P(Nc1nccs1)(c1ccccc1)c1ccccc1` stands inactive: -16.2%; under `c1nnnn1CCn1cnnn1`, inactive: -0.9%.

On to `O=P1(Nc2nc3ccc(Cl)cc3s2)COc2ccccc2O1` (centres undefined), for which the inhibition was inactive: 1%. For the compound `CCC(=O)N1C2C3N(C(=O)CC)C1C1N(C(=O)CC)C(C(N1C(=O)CC)N3C(=O)CC)N2C(=O)CC`, the inhibition was inactive: 29.2%.

Consider `COC(=O)c1cc2c(s1)N=C(c1ccccc1)N(C)P2(=O)N1CCOCC1` (centres undefined), for which the inhibition was inactive: -15.9%.

Turning to `CCOC(=O)NC(Sc1ccccc1)C(Cl)(Cl)Cl` (centres undefined), the inhibition was inactive: 3%.

As a reminder, the inhibition is the relative decrease from the control value, in per cent.

The values are drawn from PubChem BioAssay AID690 (Sanford-Burnham Center for Chemical Genomics, 2007).
